# Measured affinities in a library of Ab-14 heavy chain variants

From the AlphaSeq antibody data of Li et al. 2023 (doi:10.1038/s41467-023-39022-2), copy in the FLAb collection.

Binding partner: SARS-CoV-2 spike HR2 peptide, sequence PDVDLGDISGINAS.

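Phage display of a naive human antibody library on the peptide gave the parent. Designed CDR sequences, proposed from the first random library and measured here. Their group label is 14H_En_Gibbs (En: ensemble of fine-tuned language models; Gibbs: Gibbs sampling). In AlphaSeq, yeast of one mating type display the scFv and yeast of the other type display the target. Mating (16 h, 30 °C) was followed by selection of diploids and sequencing of their barcodes. The ratio of observed to expected reads was calibrated, replicate by replicate, on BCL2-family standards whose Kd was known from biolayer interferometry. Mating was done six times.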

The variants keep the light chain, the linker and the frameworks of Ab-14 (scFv order VH, a (GGGGS)3 linker, VL).
VH: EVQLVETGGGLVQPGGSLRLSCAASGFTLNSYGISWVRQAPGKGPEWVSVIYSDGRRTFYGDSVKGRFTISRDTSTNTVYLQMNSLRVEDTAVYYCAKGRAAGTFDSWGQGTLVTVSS
VL: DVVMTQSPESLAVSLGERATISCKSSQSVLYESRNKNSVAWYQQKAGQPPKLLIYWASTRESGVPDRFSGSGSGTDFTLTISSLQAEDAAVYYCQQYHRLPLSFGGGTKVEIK

Each variant is given by its three heavy chain CDRs, as the data file delimits them; those of the parent are GFTLNSYGIS, VIYSDGRRTFYGDSVK, GRAAGTFDS.
Affinities are written as log10 Kd with Kd in nM; a lower number is a better binder.
Averages over replicates are reported, and they cover detected replicates only.
"ND" marks a missing value. The strain was present, yet no cells mated with the target were sequenced in that replicate, which points to weak or no binding.

| # | CDR-H1 | CDR-H2 | CDR-H3 | replicates, log10 nM | mean, log10 nM | signal with controls |
|---|---|---|---|---|---|---|
| 1 | GFGIDEYGIS | VIYADGRRTFYSDDVK | GNMIVTFVD | 0.12 0.27 0.04 -0.38 -0.47 0.50 | 0.01 | 0 of 18 |
| 2 | GFDLKEYGIS | VIYADGVRTHYADDVK | GKHDGTNMA | ND ND ND ND ND ND | ND | 0 of 18 |
| 3 | GDSLNEYGIS | VIYADGLRSKYADKFK | GQEAGYFGV | ND 2.77 ND 3.87 ND ND | 3.32 | 1 of 18 (2.59) |
| 4 | GFSLDEYGIS | VIYADGLRTQYHNKVK | GLQGFIFDQ | ND ND ND ND ND ND | ND | 0 of 18 |
| 5 | GFSLEDYGIS | VIYADGRRTAYVNAVK | GTWGATILG | ND ND ND ND ND ND | ND | 2 of 18 (1.40) |
| 6 | GFDLDEYGIS | VIYADGQRFAYAQEFK | GEAGGAFDL | ND ND ND ND ND ND | ND | 0 of 18 |
| 7 | GMNIDEYGIS | VIYADGMRTAYSNAVK | GAVFGDTIS | ND ND ND ND ND ND | ND | 0 of 18 |
| 8 | GFSIDEYGIS | VIYADGVRTAVDPSFK | GQMAAFFDE | ND ND ND ND ND ND | ND | 1 of 18 (1.74) |
| 9 | GFNLDEYGIS | VIYADGIRTAYANKVK | GTNWWISVN | ND ND ND ND 3.99 ND | 3.99 | 0 of 18 |
| 10 | GFDLEEYGIS | VIYADGRRTAYTANVK | GGKSGDFFM | ND ND ND ND ND ND | ND | 0 of 18 |
| 11 | GDSLEEYGIS | VIYADGSRTAYQESVK | GLYAGMLDV | ND ND ND ND ND ND | ND | 1 of 18 (1.17) |
| 12 | GFDIDEYGIS | VIYADGKRSGYKNTVK | GNFNISLSI | ND ND ND ND ND ND | ND | 0 of 18 |
| 13 | GFDLQEYGIS | VIYADGHRTAYKQKVK | GQIAGGQFD | ND 1.99 ND ND ND ND | 1.99 | 0 of 18 |
| 14 | GFDLTEYGIS | VIYADGVRCHYADNVK | GKSDGTNML | ND ND ND ND ND ND | ND | 0 of 18 |
| 15 | GKGLDEYGVS | VIYADGVRKSYVDDVK | GGIAGNFLV | ND ND ND ND ND ND | ND | 0 of 18 |
| 16 | KFDLEAYGIS | VIYADGVRAAYVDKVK | GQTGAMFDM | ND ND ND ND ND ND | ND | 0 of 18 |
| 17 | GQDLNEYGIS | VIYADGQRTSYVQSVK | GAGDITGLV | ND ND ND ND ND ND | ND | 0 of 18 |
| 18 | GFDLNEYGVS | VIYADGHRAQYTEDVK | GTNSGAVDM | ND ND ND ND ND ND | ND | 0 of 18 |
| 19 | GFLLDDYGIS | VIYADGLRKAYVDEVK | GYVAGTFDM | 0.09 -0.46 -0.13 -0.50 -0.28 -0.06 | -0.22 | 0 of 18 |
| 20 | GESLDSYGIS | VIYADGMRTSYDNSVK | GAWAGTFDE | ND ND ND 2.62 2.80 ND | 2.71 | 1 of 18 (2.13) |
| 21 | GFDLNEYGVS | VIYADGFRTAYTDTVK | GNQFDAIMA | ND ND ND ND ND 2.81 | 2.81 | 0 of 18 |
| 22 | GFDIEEYGIS | VIYADGRRTSYQNKVK | GRSGGIFNV | 1.92 0.21 0.59 0.77 0.71 1.03 | 0.87 | 0 of 18 |
| 23 | GFEIQEYGIS | VIYADGRRQAYAESVK | GTLGGTLST | 1.70 0.97 0.68 1.33 0.66 0.62 | 0.99 | 0 of 18 |
| 24 | GFDLEKYGIS | VIYADGQRVEYDSSVK | GENAGYFMD | ND ND ND ND ND ND | ND | 0 of 18 |
| 25 | GFDLNEFGVS | VIYADGYRASYADKVK | GFNFGQLIV | -0.32 0.29 0.36 -0.30 -0.15 -0.11 | -0.04 | 0 of 18 |
| 26 | GFNLDEYGIS | VIYADGRRTAYKDTVK | GVRTWEFDL | ND ND ND ND ND ND | ND | 1 of 18 (0.46) |
| 27 | GFEIQEYGIS | VIYADGRRTAYAENVK | GTLAGTLST | 0.03 0.74 0.27 0.85 ND ND | 0.47 | 0 of 18 |
| 28 | GFDLVEYGIS | VIYADGIRTVVSNDVK | GNVAGTIFV | ND ND ND ND ND ND | ND | 0 of 18 |
| 29 | GFELEEYGIS | VIYADGKRTFYTNAVK | GTWGVFGLG | ND ND ND ND ND ND | ND | 0 of 18 |
| 30 | GFNLDDMGIS | VIYADGERTAYSDSVK | GHEGGIMNV | ND ND ND ND ND ND | ND | 0 of 18 |
| 31 | GFQINEYGIS | VIYADGLRTAYSQEVK | GQDTVNFVD | ND ND ND ND ND ND | ND | 0 of 18 |
| 32 | GFDLDEYGIS | VIYADGIRTNYSNSVK | GTIGGTFFQ | 3.06 1.77 ND 2.15 ND ND | 2.33 | 0 of 18 |
| 33 | GFGLGEYGIS | VIYADGRRTFYKDDVK | GHFIVAGVD | ND ND ND ND ND ND | ND | 1 of 18 (2.46) |
| 34 | GFELQEFGIS | VIYADGIRTNYSQNVK | GTLAGTFTL | 1.28 2.47 1.24 1.85 ND 1.42 | 1.65 | 1 of 18 (1.39) |
| 35 | GFGLDEYGIS | VIYADGVRRSFIDNVK | GFDGEVSIV | ND ND ND ND ND ND | ND | 0 of 18 |
| 36 | GFSLDEFGIS | VIYADGMRTVYSQDVK | GQHVEFTVG | ND ND ND ND ND ND | ND | 0 of 18 |
| 37 | GKELDEYGIS | VIYADGVRKAYQNSVK | GQVTFFIRV | ND ND ND ND ND ND | ND | 0 of 18 |
| 38 | GFSLDEYGIS | VIYADGVRTQYDDSFK | GTGGFDIEL | ND ND ND ND 0.54 ND | 0.54 | 0 of 18 |
| 39 | GFDLDKYGIS | VIYADGMRKSYADKVK | GRLSGTVYI | -0.28 0.25 -0.44 0.59 -0.25 0.40 | 0.04 | 0 of 18 |
| 40 | GFDVDEQGIS | VIYADGKRSMYANSVK | GTIGGMFFQ | ND ND 2.55 ND ND ND | 2.55 | 0 of 18 |
| 41 | GGDIQEYGIS | VIYADGQRAQYADAVK | GNIGAIFSD | ND ND ND ND ND ND | ND | 0 of 18 |
| 42 | GDNLEEYGIS | VIYADGRRTSYASSVK | GAIRGTFDS | ND ND ND ND ND ND | ND | 0 of 18 |
| 43 | GFQLDEYGIS | VIYADGIRQYYAQKVK | GYNSFDMTV | ND ND ND ND ND ND | ND | 0 of 18 |
| 44 | GFDIEEFGIS | VIYADGRQVAYAQKVK | GTIAGTFVD | 2.24 1.60 1.21 1.66 1.15 1.77 | 1.61 | 1 of 18 (2.01) |
| 45 | GIDLEEYGIS | VIYADGMRTQYINAVK | GIAGDQMDV | ND ND ND ND ND ND | ND | 0 of 18 |
| 46 | GNNLDEYGIS | VIYADGQRSAYAQDVK | GETGDNAFT | ND ND ND ND ND ND | ND | 0 of 18 |
| 47 | GENLEEYGIS | VIYADGIREQYTDDVK | GEQGGYFVT | ND ND ND ND ND ND | ND | 0 of 18 |

The authors averaged sequences with at least three values out of six and counted those with two or fewer as poor binders.
The range of this assay differs from that of the first round, and the authors advise against merging the two.
As a blank, each scFv also met three strains without target: over all heavy chain designs, 1% of these pairings were detected, typically at 2.08 and seldom below 0.84. For each scFv, signals with the empty controls are counted beside the result, with their mean in brackets.